## Measured affinities in a library of Ab-91 heavy chain variants

Source: Engelhart et al. 2022 (doi:10.1038/s41597-022-01779-4), MIT Lincoln Laboratory and A-Alpha Bio; data file from the FLAb repository.

Target peptide (SARS-CoV-2 spike, HR2 region): PDVDLGDISGINAS

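The parent was found by panning a naive human phage display library on the peptide. Library AAYL51 holds single substitutions and randomly drawn double and triple substitutions in the CDRs. The assay is AlphaSeq: two haploid yeast populations carry antibody and antigen on their surface. The frequency of each diploid, read from paired DNA barcodes, reflects how well the two displayed proteins bind. Scores were corrected for input abundance and mapped to Kd with protein pairs of known affinity run in the same pool. Mating was done three times.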

Parent scFv Ab-91: VL joined to VH by a (GGGGS)3 linker. Changes lie in the heavy chain CDRs alone.
VL: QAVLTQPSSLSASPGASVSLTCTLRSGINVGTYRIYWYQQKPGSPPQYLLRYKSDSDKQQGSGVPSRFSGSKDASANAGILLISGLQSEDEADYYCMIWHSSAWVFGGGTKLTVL
VH: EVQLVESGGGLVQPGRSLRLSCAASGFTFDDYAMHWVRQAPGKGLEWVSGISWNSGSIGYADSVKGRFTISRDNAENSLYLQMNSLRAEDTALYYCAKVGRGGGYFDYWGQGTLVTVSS

Changes read parent residue, position, new residue, counted from the first residue of the VH shown. Each Kd is an estimate from the mating assay, the geometric mean of the replicates in which the pair was seen; lower is stronger. A pair that was not seen in any replicate is written "nd"; this usually means weak binding, but a binder can also be missed. In this assay the parent's reference entry averaged 72 nM; its copy inside this library read 7.5 nM. Empty control strains, which show no peptide, gave a signal in 21% of pairings with library AAYL51; the median was 34 µM and 95% of these signals were weaker than 1.8 µM. No background was subtracted.

changes,apparent Kd,detected
Y60Q/V64C/V99S,92 µM,1/3
T28Y/A33G/H35Q,48 µM,3/3
W53N/G56H/S57N,87 µM,2/3
Y60R/Y108L,67 µM,3/3
D31V/K65A/Y108I,200 µM,1/3
G26F/I51A/G104F,97 µM,1/3
F29Q/K65V/G100H,nd,0/3
G50C/V64L,nd,0/3
G50S/G100R/G103V,nd,0/3
S52G/S57E/G103K,16 µM,3/3
T28Y/N54F/A61F,nd,0/3
D31E/Y32T/Y105L,8.1 µM,1/3
D62I/V99G/Y108R,nd,0/3
G59T/S63F/Y108N,110 µM,1/3
T28A/I51V/A61Q,350 nM,3/3
T28D/I51M/A61K,nd,0/3
S57M/S63D/V64C,nd,0/3
A33G/W53S/K65F,2.5 nM,3/3
Y32W/S52W/Y60L,nd,0/3
V64F/G103K/Y108T,nd,0/3
Y60V/R101V/D107T,nd,0/3
A33C/S52N/Y105Q,nd,0/3
A33C/M34L/F106S,nd,0/3
S63A/V99A/R101H,nd,0/3
V64L/R101S/Y108I,18 nM,3/3
F27G/N54K/G104N,420 nM,1/3
D31W/S57M/V99T,310 nM,3/3
S57K/G102I,nd,0/3
H35G/D62E/V64M,60 µM,3/3
G26P/G50Q/G56V,nd,0/3
S63Q/Y108P,6.5 nM,3/3
T28M/Y32F/G56A,46 nM,3/3
D31K/G102N/G104N,nd,0/3
G102F/G104Q,160 nM,3/3
G26R/T28Q/H35I,nd,0/3
D31K/R101E/G102R,370 nM,2/3
Y32L/R101E/D107M,nd,0/3
I51E/G102S/G103I,24 µM,1/3
Y60K/Y105A/F106T,nd,0/3
V64C/D107C,49 µM,2/3
F27M/G59P/Y108L,nd,0/3
G59C/F106G/D107C,11 µM,1/3
D30P/H35Q/A61N,nd,0/3
T28S/F29K/D30P,9.9 µM,3/3
A33D/D62F/S63G,130 µM,1/3
F27T/S52P/V64N,nd,0/3
F27P/Y60K/R101P,6.1 µM,1/3
F29H/V64E/G100E,230 µM,1/3
S52R/S63C/G102I,34 µM,1/3
S63A/D107V,28 µM,2/3
A33H/V64D/R101N,19 µM,1/3
D31W/A33G/I58F,670 pM,3/3
A33H/K65E/G100R,16 µM,1/3
V64A/G102M/D107V,nd,0/3
T28W/S52F/V99D,nd,0/3

For reference, 4 entries of the list once more:

changes,apparent Kd,detected
S63A/V99A/R101H,nd,0/3
D31W/A33G/I58F,670 pM,3/3
S57K/G102I,nd,0/3
G50C/V64L,nd,0/3